Reference: IntAct's records for PubMed 35512704

B1: RAC-alpha serine/threonine-protein kinase (Homo sapiens), P31749 (parent)
chain: MSDVAIVKEGWLHKRGEYIKTWRPRYFLLKNDGTFIGYKERPQDVDQREAPLNNFSVAQCQLMKTERPRPNTFIIRCLQWTTVIERTFHVETPEEREEWTTAIQTVADGLKKQEEEEMDFRSGSPSDNSGAEEMEVSLAKPKHRVTMNEFEYLKLLGKGTFGKVILVKEKATGRYYAMKILKKEVIVAKDEVAHTLTENRVLQNSRHPFLTALKYSFQTHDRLCFVMEYANGGELFFHLSRERVFSEDRARFYGAEIVSALDYLHSEKNVVYRDLKLENLMLDKDGHIKITDFGLCKEGIKDGATMKTFCGTPEYLAPEVLEDNDYGRAVDWWGLGVVMYEMMCGRLPFYNQDHEKLFELILMEEIRFPRTLGPEAKSLLSGLLKKDPKQRLGGGSEDAKEIMQHRFFAGIVWQHVYEKKLSPPFKPQVTSETDTRYFDEEFTAQMITITPPDQDDSMECVDSERRPHFPQFSYSASGTA
partner: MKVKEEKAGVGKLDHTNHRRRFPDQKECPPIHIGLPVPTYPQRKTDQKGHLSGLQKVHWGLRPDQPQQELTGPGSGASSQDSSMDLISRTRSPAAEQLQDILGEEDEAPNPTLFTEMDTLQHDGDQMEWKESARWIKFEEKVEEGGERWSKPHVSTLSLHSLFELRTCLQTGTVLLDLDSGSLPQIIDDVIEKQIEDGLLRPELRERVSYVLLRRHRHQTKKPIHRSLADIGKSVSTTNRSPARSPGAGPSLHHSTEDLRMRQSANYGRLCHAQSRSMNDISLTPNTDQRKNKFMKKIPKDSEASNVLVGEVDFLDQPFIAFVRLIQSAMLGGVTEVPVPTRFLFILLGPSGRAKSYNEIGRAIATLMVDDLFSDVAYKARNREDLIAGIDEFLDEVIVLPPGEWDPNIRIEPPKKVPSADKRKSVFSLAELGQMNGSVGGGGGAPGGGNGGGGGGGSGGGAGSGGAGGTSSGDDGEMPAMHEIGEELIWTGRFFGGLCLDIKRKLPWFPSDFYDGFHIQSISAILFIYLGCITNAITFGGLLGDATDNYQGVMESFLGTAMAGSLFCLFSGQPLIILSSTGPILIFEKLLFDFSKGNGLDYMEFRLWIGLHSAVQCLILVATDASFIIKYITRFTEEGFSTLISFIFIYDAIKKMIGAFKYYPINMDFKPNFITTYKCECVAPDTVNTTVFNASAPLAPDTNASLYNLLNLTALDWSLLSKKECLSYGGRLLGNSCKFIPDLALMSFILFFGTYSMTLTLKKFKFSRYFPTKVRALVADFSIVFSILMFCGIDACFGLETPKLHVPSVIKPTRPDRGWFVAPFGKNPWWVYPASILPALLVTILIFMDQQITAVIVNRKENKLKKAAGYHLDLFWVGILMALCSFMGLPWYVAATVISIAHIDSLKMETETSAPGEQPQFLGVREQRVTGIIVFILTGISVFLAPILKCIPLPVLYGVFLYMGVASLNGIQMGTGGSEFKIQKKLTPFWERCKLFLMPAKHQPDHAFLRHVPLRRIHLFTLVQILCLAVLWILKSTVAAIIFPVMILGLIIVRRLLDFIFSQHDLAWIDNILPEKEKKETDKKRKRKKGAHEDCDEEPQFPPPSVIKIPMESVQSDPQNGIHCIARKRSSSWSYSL
B2: RAC-alpha serine/threonine-protein kinase (Homo sapiens), P31749 (parent)
chain: B1 chain
partner: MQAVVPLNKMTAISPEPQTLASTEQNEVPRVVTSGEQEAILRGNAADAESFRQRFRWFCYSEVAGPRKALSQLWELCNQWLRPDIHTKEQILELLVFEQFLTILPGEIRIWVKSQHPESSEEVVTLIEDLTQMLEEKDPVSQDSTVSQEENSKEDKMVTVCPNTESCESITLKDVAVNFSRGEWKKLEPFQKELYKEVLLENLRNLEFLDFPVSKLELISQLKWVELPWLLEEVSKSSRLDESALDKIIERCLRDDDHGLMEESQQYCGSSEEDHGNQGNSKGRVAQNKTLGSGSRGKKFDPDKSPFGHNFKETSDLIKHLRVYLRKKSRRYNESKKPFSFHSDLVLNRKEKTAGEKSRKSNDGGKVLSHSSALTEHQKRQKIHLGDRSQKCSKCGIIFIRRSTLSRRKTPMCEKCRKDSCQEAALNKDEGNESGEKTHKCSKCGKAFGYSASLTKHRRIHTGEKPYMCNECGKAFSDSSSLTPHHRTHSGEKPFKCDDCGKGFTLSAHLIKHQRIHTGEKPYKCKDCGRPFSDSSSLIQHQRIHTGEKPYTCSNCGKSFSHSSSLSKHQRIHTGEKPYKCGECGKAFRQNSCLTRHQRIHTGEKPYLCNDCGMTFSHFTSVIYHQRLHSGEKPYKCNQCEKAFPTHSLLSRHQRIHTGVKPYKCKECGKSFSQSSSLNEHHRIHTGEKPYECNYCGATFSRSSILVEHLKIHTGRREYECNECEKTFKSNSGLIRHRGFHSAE
B3: RAC-alpha serine/threonine-protein kinase (Homo sapiens), P31749 (parent)
chain: B1 chain
partner: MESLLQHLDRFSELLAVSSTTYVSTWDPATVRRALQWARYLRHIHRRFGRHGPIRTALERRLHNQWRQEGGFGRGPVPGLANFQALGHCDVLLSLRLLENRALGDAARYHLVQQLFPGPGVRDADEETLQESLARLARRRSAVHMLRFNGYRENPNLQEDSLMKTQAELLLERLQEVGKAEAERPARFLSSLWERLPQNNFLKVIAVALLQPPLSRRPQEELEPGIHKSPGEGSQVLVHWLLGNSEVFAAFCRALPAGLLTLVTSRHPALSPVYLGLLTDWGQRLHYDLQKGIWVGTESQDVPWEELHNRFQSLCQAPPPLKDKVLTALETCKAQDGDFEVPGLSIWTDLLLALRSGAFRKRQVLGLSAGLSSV
B4: RAC-alpha serine/threonine-protein kinase (Homo sapiens), P31749 (parent)
chain: B1 chain
partner: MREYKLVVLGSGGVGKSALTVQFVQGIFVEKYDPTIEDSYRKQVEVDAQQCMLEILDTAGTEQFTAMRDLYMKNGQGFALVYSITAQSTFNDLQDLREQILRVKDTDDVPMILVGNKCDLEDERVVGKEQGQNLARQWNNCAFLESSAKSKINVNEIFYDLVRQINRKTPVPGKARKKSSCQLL
B5: RAC-alpha serine/threonine-protein kinase (Homo sapiens), P31749 (parent)
chain: B1 chain
partner: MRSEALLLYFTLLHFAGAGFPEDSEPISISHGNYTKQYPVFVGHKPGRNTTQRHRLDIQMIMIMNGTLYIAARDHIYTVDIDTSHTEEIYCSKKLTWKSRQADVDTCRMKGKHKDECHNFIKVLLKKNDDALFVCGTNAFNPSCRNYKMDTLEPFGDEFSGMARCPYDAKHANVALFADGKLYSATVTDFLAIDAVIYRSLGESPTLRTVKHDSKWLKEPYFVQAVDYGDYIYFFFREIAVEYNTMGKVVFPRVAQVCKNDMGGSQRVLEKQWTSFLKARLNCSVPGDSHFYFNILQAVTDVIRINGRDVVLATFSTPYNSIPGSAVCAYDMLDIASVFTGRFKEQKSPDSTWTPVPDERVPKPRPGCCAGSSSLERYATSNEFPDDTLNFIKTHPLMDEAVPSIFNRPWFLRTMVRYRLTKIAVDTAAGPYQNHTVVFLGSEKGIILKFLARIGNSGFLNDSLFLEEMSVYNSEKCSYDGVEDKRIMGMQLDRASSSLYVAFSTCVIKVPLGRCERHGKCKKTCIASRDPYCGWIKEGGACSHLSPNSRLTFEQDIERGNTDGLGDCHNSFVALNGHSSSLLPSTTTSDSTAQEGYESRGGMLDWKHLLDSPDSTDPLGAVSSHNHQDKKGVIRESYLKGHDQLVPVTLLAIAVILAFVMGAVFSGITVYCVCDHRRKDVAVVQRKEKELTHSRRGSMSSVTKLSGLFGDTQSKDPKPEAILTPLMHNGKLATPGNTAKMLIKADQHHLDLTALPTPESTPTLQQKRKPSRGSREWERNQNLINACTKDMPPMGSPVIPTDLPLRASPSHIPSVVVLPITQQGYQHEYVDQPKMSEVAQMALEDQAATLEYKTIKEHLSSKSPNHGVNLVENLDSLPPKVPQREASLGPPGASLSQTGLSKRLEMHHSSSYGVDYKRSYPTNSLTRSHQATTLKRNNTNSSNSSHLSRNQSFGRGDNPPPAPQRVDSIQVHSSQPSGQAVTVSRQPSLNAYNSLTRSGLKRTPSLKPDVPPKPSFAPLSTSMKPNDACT

Variants of: B1
Conditions: with s4a5_human SLC4A5, Q9BY07

Row | Variant | effect of a mutation on the interaction
1 | E17K | causing an interaction

Variants of: B2
Conditions: with zn483_human ZNF483, Q8TF39

Row | Variant | effect of a mutation on the interaction
2 | E17K | with no effect

Variants of: B3
Conditions: with fancf_human FANCF

Row | Variant | effect of a mutation on the interaction
3 | E17K | causing an interaction

Variants of: B4
Conditions: with rap1b_human RAP1B

Row | Variant | effect of a mutation on the interaction
4 | E17K | with no effect

Variants of: B5
Conditions: with sem6a_human SEMA6A

Row | Variant | effect of a mutation on the interaction
5 | E17K | with no effect
